Results reported in ChEMBL document CHEMBL5236611, “Development of SOS1 Inhibitor-Based Degraders to Target KRAS-Mutant Colorectal Cancer” (J Med Chem, 2022).

Chains of the proteins cited; added tags and fusions are not shown. Lines headed by an entry give the natural chain unless they say otherwise; changes in a name come on top.
UniProt Q96SW2: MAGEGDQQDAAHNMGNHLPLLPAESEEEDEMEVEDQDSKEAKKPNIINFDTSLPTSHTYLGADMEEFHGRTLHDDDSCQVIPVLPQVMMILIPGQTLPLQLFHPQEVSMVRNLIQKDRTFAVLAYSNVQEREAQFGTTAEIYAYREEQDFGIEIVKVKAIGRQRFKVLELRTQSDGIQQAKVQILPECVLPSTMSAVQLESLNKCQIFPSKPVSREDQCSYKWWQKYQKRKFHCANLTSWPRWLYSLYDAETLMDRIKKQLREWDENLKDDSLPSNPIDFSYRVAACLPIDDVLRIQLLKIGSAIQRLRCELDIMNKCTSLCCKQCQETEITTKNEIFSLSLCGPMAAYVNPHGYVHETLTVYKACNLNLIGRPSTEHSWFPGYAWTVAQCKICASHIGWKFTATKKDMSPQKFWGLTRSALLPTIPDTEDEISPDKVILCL

Experiments:
Type in all cases: cell-based
[1] = target: T1, Protein cereblon/Son of sevenless homolog 1 (Homo sapiens, UniProt Q07889+Q96SW2); experiment: PROTAC activity at SOS1/Cereblon in human SW620 cells assessed as ratio of protein degradation normalized to DMSO at 1 uM measured after 6 hrs by immunoblotting analysis
Procedure, shortened: (§1)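 SW620 cells in McCoy's 5A/10% FBS, 37 °C, 5% CO2, treated 6 h. Lysed in RIPA with protease/phosphatase inhibitors, ~40 μg protein per lane on SDS-PAGE and immunoblotted. SOS1 band normalized to DMSO control (1.0 = no degradation).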

[2] = target: T1, Protein cereblon/Son of sevenless homolog 1; experiment: PROTAC activity at SOS1/Cereblon in human SW620 cells assessed as ratio of protein degradation normalized to DMSO at 10 uM measured after 6 hrs by immunoblotting analysis; procedure, shortened: as §1
[3] = target: T1, Protein cereblon/Son of sevenless homolog 1; experiment: PROTAC activity at SOS1/Cereblon in human SW620 cells assessed as ratio of protein degradation normalized to DMSO at 0.1 uM measured after 6 hrs by immunoblotting analysis; procedure, shortened: as §1

COc1cc2c(N[C@H](C)c3cc(N)cc(C(F)(F)F)c3)nc(C)nc2cc1OCC(=O)Nc1cccc2c1CN(C1CCC(=O)NC1=O)C2=O (stereo partly drawn) was tested, and the Ratio [1] was 0.365, the Ratio [2] was 0.36 and the Ratio [3] was 1.07.
